Test results from PubChem BioAssay AID1777 (Sanford-Burnham Center for Chemical Genomics, 2009).
This is one part of the list. Results with a measured potency or affinity are listed apart. Calls of active or inactive are those of the source. No stated cut-off is given here; in the data, active means activation above about 50% (passing the limit was not always enough); inactive means the rest.

By UniProt entry, the sequences of proteins in these tests, tags left out. Where a name states a change or a piece, a line headed by the entry shows the natural chain unless it says otherwise.
UniProt P41145: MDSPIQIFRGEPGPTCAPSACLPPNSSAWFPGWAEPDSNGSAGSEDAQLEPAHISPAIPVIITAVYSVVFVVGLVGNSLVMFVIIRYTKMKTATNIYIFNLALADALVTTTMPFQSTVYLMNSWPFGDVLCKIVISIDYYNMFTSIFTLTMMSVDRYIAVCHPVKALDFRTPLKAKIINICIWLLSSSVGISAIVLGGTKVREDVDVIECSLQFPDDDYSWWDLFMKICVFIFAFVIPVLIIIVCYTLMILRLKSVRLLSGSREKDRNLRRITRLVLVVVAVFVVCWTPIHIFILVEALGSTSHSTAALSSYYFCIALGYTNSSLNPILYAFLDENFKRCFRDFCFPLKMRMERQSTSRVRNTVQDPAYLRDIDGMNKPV

biological target: Kappa-type opioid receptor (Homo sapiens) (UniProt P41145); assay: KOR agonists, beta-arrestin recruitment, primary screen, cell-based, luminescence, uHTS (AID 1777); details: at 10 µM, active compounds read high

SMILES | activation
C/C(=N\NC(=O)Cn1c(-c2ccccn2)nc2ccccc21)c1cccc(O)c1 | inactive: -7.2%
CCOP1(=S)c2c(C)nn(CCC#N)c2N=C(c2ccccc2F)N1C (stereo unspecified) | inactive: 0.7%
CCN1CCC(Nc2ccnc3cc(Cl)ccc23)CC1 | inactive: 0.3%
CS(=O)(=O)c1cc([N+](=O)[O-])c2no[n+]([O-])c2c1 | inactive: 1.7%
CCC(=O)NC(/C=C/c1ccccc1)c1cc([N+](=O)[O-])c2cccnc2c1O (stereo unspecified) | inactive: -6%
Cn1c(=O)c2c(ncn2CC(=O)Nc2ccc3c(c2)OCO3)n(C)c1=O | inactive: 3.4%
Cc1ccc(/C=N\NC(=O)Cn2c(C)nc3ccccc32)o1 | inactive: -0.7%
O=C(Cn1cnc2ccccc21)N1CCc2ccccc21 | inactive: -10.4%
O=C1NCN(c2ccccc2)C12CCN(c1nnnn1-c1ccccc1)CC2 | inactive: 0.2%
CN(C)C(=O)Cn1c(SCC(=O)N2CCCc3ccccc32)nc2ccccc21 | inactive: 3.8%
CCN(Cc1ccccc1)C(=O)Cn1cnc2c1c(=O)n(C)c(=O)n2C | inactive: -1.7%
CCN(CC)CCn1c(=N)n(CC(O)COc2ccccc2)c2ccccc21 (stereo unspecified) | inactive: 1.7%
C[C@H](NC(=O)N1CCn2c1nc1ccccc12)C(=O)NCc1ccc2c(c1)OCO2 | inactive: 2%
COC(CNC(=O)CC1C(=O)N(Cc2ccccc2)C(C)c2nc3ccccc3n21)OC (stereo unspecified) | inactive: 4.6%
Fc1ccc2c(c1)nnn2C1CCN(Cc2nnnn2C2CCCCC2)CC1 | inactive: 26.8%
N=c1n(CCN2CCOCC2)c2ccccc2n1CC(O)COc1ccccc1 (stereo unspecified) | inactive: 4.8%
NC(=O)CC(NC(=O)Cc1cccc2ccccc12)c1ccc(NC2CCN(Cc3ccccc3)CC2)c([N+](=O)[O-])c1 (stereo unspecified) | inactive: 1.9%
NNC(=O)Cn1c(COc2ccc(Cl)cc2)nc2ccccc21 | inactive: 1.9%
COc1cccc(C(=O)CSc2nc3ccccc3n2CC(=O)N(C(C)C)C(C)C)c1 | inactive: -4.3%
CC(C)Sc1nc2ccccc2n1CC(=O)NCc1ccc2c(c1)OCO2 | inactive: -1.6%
Cn1c(=O)n(Cc2ccc(F)cc2)c(=O)c2c1nc1n2CCN1Cc1ccco1 | inactive: -0.4%
CCOC(=O)CNC(=S)N1CCn2c(nc3ccccc32)C1 | inactive: -2%
O=C(Cn1c(-c2ccccn2)nc2ccccc21)N/N=C/c1cccnc1 | inactive: 0.3%

SMILES | activation
CCOC(=O)C1CCN(C(=O)CC2C(=O)N(Cc3ccccc3)C(C)c3nc4ccccc4n32)CC1 (stereo unspecified) | inactive: 1.9%
Cc1nc2ccccc2n1CC(=O)NCc1ccccc1 | inactive: -1.6%
Cn1c(=O)c2c(ncn2CC(=O)N/N=C/C=C/c2ccco2)n(C)c1=O | inactive: 0.1%
Cn1c(=O)c2c(ncn2CC(=O)N/N=C/c2cn[nH]c2-c2ccc(F)cc2)n(C)c1=O | inactive: -1.4%
O=C(C1CCN(S(=O)(=O)c2cnc[nH]2)CC1)N1CCn2c1nc1ccccc12 | inactive: -0.8%
O=C(Cn1cnc2ccccc21)N/N=C/c1ccc([N+](=O)[O-])cc1 | inactive: -5.3%
O=C(O)COc1ccc([As](=O)(O)O)cc1[N+](=O)[O-] | inactive: -4.5%
Nc1ccccc1[As](=O)(O)c1ccccc1 | inactive: 2.1%
Nc1nonc1-c1nc2ccccc2n1CC(=O)N/N=C/c1ccc(-c2cccc(C(=O)O)c2)o1 | inactive: -2.2%
Cc1ccc2c(c1)C1CN(C)CCC1N2C(=O)c1cn(-c2ccccc2)nc1-c1ccccc1 (stereo unspecified) | inactive: -4.1%
CCOC(=O)c1ccccc1NC(=O)Cn1cnc2c1c(=O)n(C)c(=O)n2C | inactive: -4.4%
NC(=O)Cn1c(-c2nonc2N)nc2ccccc21 | inactive: -2.5%
COCCN1CCn2c(nc3cc(NC(=O)NC4CCCCC4)ccc32)C1 | inactive: 2.9%
CC(c1ccccc1)N1CCn2c(nc3cc(NC(=O)c4cccs4)ccc32)C1 (stereo unspecified) | inactive: 0%
O=C1CC(N2CCC(n3c(=O)[nH]c4ccccc43)CC2)C(=O)N1c1ccc(F)cc1 (stereo unspecified) | inactive: -3.4%
CC(C)N(C(=O)Cn1c(SCC(=O)NCc2ccc3c(c2)OCO3)nc2ccccc21)C(C)C | inactive: -4.1%
CCc1ccccc1NC(=O)CSc1nc2ccccc2n1CC(=O)N(C)C | inactive: -1.3%
N=c1n(CCN2CCOCC2)c2ccccc2n1Cc1ccccc1Br | inactive: 6%
O=S(=O)(Nc1ccc2c(c1)nc1n2CCN(Cc2ccccc2)C1)c1ccc(Cl)cc1 | inactive: 46.6%
O=C(Cn1cnc2ccccc21)N/N=C/c1cccs1 | inactive: -0.4%
CN(C)CCn1cnc2c1c(=O)[nH]c(=O)n2Cc1ccccc1 | inactive: -3%
Cc1ccc2c(c1)C1CN(C)CCC1N2C(=O)c1ccc(Br)o1 (stereo unspecified) | inactive: 1.2%
COC(=O)CSc1nc2ccccc2n1CC(=O)N(C(C)C)C(C)C | inactive: -2.5%

SMILES | activation
Cc1ccc2c(c1)C1CN(C)CCC1N2C(=O)/C(C#N)=C/c1ccc2c(c1)OCO2 (stereo unspecified) | inactive: 1.7%
O=P1(Nc2ncccn2)COc2ccccc2OC1 | inactive: 4.1%
Cn1c(=O)[nH]c(=O)c2c1nc(N1CCOCC1)n2CCN1CCOCC1 | inactive: -7.8%
CCN(CC)C(=O)N1CCn2c(nc3ccccc32)C1 | inactive: -1.9%
COc1ccccc1N1CCN(C(=O)Cn2cnc3c2c(=O)n(C)c(=O)n3C)CC1 | inactive: -1.2%
Cn1c(=O)c2c(ncn2CC(=O)Nc2ccc(Cl)cc2Cl)n(C)c1=O | inactive: 2.7%
Cn1c(=O)[nH]c(=O)c2c1nc(CN1CCN(c3cccc(Cl)c3)CC1)n2CCN1CCOCC1 | inactive: -4.1%
O=C(Cn1c(-c2ccccc2Cl)nc2ccccc21)Nc1cccc(Cl)c1 | inactive: 2.5%
Cn1c(=O)c2ncn(CC(=O)NCCOCc3ccccc3Cl)c2n(C)c1=O | inactive: -3%
Cn1c(=O)c2c(ncn2CC(=O)Nc2ccccc2Sc2ccccc2)n(C)c1=O | inactive: 6.6%
Nc1cccc([As](=O)(O)c2ccccc2)c1 | inactive: -1.8%
CCOCN(C(=O)Cn1c(COC)nc2ccccc21)c1c(C)cccc1CC | inactive: -2.7%
Cn1c(CNc2nc3ccccc3n2CCN2CCCCC2)nc2ccccc21 | inactive: 1.7%
Cc1ccc2c(c1)C1CN(C)CCC1N2C(=O)Cn1nnc(-c2ccccc2F)n1 (stereo unspecified) | inactive: 1.1%
Cc1cc(NC(=O)Cn2cnc3c2c(=O)n(C)c(=O)n3C)n(-c2ccccc2)n1 | inactive: -3.7%
O=C(NCCn1c(-c2ccncc2)nc2ccccc21)[C@H]1CCCN1c1nc(CN2CCCCC2)cs1 | inactive: -2.9%
CC(C)C[C@H](NC(=O)N1CCn2c1nc1ccccc12)C(=O)NCc1ccco1 | inactive: -1.3%
O=P1(Nc2ccc(Br)cn2)COc2ccccc2OC1 | inactive: -3.2%
Cc1ccc2c(c1)C1CN(C)CCC1N2C(=O)c1ccccc1NS(=O)(=O)c1ccc(F)cc1C (stereo unspecified) | inactive: 10.6%
O=[As](O)(c1cccs1)c1cccs1 | inactive: -1.8%
Cc1ccc(C(=O)N(C)c2ccc(OCC(=O)N3c4ccc(C)cc4C4CN(C)CCC43)cc2)cc1 (stereo unspecified) | inactive: 2.2%
Cc1ccc(OCC(=O)OC2CN3CCC2CC3)cc1 (stereo unspecified) | inactive: -3.7%
CCc1ccccc1NC(=O)CSc1nc2ccccc2n1CC(=O)N1CCCC1 | inactive: -4.3%

SMILES | activation
CCC(=O)N1CCn2c1nc1ccccc12 | inactive: 3.1%
CCN(CC)c1ccc(NC(=O)Cn2c(C(C)NC(=O)c3ccccc3)nc3ccccc32)cc1 (stereo unspecified) | inactive: 0.9%
Cc1ccc(C(=O)OC2CN3CCC2CC3)cc1 (stereo unspecified) | inactive: -3.1%
CC1CCC(C(C)C)C(OP(=O)(Nc2ccccn2)c2ccccc2)C1 (stereo unspecified) | inactive: 2.2%
CCN(CC)C(=O)Cn1c(=O)n(C)c2ccccc21 | inactive: 0.6%
Cc1nn(-c2ccccc2)c2c1P(=O)(N1CCOCC1)N(C)C(c1ccccc1)=N2 (stereo unspecified) | inactive: -0.2%
Cc1cccc(Cn2c(=O)c3c(nc4n3CCN4Cc3ccco3)n(C)c2=O)c1 | inactive: -1.7%
O=C(Cn1c(C(F)(F)F)nc2ccccc21)NCCN1CCCC1 | inactive: 1%
Cc1cccc(C)c1NC(=O)N1CCC(n2c(=O)[nH]c3ccccc32)CC1 | inactive: 0.5%
c1ccc2c(c1)nc(-c1ccncc1)n2CCNc1nc(CN2CCCCC2)cs1 | inactive: -2.5%
CCCC(=O)Nc1ccc(C(=O)/C=C/c2ccc(SC)cc2)cc1 | inactive: -2.4%
CCn1cc(Cl)c(C(=O)Nc2nc3ccccc3n2CCN2CCCCC2)n1 | inactive: -1.7%
O=C(Cn1c(=O)n(CC2CS2)c2ccccc21)N1CCCCCC1 (stereo unspecified) | inactive: -9.9%
CC(C)(C)NC(=O)Cn1c(SCC(=O)NCc2cccs2)nc2ccccc21 | inactive: 8.1%
O=C(Cn1c(SCC(=O)N2CCc3ccccc32)nc2ccccc21)NC1CCCC1 | inactive: 18.3%
O=C(Cn1cnc2ccccc21)Nc1cc(C(F)(F)F)ccc1N1CCOCC1 | inactive: 14.6%
COc1cc2c(cc1NC(=O)Cn1cnc3c1c(=O)n(C)c(=O)n3C)oc1ccccc12 | inactive: -1.6%
COc1ccc(Cl)cc1NC(=O)Cn1c(NCCO)nc2ccccc21 | inactive: 2.4%
O=C(Cn1c(COc2ccccc2)nc2ccccc21)Nc1cc(Cl)c(Cl)cc1Cl | inactive: 8.6%
CCN1C(=O)CC(N2CCC(Nc3ccc(OC)cc3)CC2)C1=O (stereo unspecified) | inactive: -4.2%
CC(=O)Nc1ccc(NC(=O)C2CC(=O)Nc3nc4ccccc4n32)cc1 (stereo unspecified) | inactive: -1.9%
O=C(CSc1nc2ccccc2n1CC(=O)NCc1ccccc1)NCc1ccco1 | inactive: 3.4%
